From US20260055126A1, “SMALL MOLECULE COMPOUNDS WITH PHOSPHORYLATED ARYL STRUCTURES AND USE THEREOF” (HANGZHOU PHECDAMED CO., LTD., priority 2022, published 2026)

Sequences of proteins named here, by UniProt entry; tags and fusion partners are left off. Residues count along the entry.
UniProt Q99594, 218-435 limits assumed: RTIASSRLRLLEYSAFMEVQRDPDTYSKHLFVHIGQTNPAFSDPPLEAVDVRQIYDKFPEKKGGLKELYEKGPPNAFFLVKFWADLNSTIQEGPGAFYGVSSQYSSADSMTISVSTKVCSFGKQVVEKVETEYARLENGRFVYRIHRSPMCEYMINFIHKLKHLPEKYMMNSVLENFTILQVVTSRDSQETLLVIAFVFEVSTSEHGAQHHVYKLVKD
UniProt Q99594, whole entry: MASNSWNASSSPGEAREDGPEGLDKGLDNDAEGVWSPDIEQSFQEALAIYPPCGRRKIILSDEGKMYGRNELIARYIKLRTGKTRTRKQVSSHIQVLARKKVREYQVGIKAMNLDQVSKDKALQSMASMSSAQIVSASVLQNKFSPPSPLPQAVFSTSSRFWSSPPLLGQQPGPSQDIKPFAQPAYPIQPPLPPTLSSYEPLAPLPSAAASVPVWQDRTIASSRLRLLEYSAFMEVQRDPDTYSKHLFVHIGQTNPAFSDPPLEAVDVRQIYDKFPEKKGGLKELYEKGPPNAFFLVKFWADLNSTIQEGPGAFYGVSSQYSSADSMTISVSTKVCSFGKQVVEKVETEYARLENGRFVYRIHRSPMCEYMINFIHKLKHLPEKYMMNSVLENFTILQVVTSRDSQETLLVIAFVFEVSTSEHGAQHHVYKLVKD
UniProt Q15561, whole entry: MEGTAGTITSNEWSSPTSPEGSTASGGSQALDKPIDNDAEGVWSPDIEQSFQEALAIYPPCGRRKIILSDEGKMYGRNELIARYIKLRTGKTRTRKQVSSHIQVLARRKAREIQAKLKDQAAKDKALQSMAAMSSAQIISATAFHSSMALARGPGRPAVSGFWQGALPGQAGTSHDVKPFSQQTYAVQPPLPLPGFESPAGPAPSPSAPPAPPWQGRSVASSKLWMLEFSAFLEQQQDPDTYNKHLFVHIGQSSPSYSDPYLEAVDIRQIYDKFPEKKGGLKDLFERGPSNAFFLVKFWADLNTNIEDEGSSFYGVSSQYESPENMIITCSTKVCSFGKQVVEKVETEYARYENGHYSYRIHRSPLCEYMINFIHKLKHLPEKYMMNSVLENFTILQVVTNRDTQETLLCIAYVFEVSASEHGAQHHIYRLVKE
UniProt Q15561, 217-434 limits assumed: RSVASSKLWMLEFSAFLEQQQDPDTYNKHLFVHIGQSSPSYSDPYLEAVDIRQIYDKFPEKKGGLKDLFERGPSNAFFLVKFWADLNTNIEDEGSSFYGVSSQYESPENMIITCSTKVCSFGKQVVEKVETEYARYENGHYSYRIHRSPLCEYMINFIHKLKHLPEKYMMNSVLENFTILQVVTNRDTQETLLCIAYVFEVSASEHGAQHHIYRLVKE
UniProt Q15562, 218-447 limits assumed: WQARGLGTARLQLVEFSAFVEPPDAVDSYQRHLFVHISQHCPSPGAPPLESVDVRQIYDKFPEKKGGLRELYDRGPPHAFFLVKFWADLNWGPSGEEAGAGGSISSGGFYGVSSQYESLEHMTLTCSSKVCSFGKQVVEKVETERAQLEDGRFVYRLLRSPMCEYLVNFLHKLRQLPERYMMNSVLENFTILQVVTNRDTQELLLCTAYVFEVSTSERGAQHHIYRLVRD
UniProt Q15562, whole entry: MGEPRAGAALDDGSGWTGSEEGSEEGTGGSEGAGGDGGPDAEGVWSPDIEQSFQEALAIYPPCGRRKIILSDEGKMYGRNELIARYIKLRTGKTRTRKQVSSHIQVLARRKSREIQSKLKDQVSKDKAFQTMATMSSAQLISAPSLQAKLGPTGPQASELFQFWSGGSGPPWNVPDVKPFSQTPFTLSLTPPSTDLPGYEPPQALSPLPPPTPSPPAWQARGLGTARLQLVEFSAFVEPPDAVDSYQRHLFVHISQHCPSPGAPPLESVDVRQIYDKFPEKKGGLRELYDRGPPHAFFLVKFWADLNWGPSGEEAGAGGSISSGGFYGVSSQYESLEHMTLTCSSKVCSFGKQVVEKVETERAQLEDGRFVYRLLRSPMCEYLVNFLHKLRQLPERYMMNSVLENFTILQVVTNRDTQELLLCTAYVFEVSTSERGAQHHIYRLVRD
UniProt P28347, whole entry: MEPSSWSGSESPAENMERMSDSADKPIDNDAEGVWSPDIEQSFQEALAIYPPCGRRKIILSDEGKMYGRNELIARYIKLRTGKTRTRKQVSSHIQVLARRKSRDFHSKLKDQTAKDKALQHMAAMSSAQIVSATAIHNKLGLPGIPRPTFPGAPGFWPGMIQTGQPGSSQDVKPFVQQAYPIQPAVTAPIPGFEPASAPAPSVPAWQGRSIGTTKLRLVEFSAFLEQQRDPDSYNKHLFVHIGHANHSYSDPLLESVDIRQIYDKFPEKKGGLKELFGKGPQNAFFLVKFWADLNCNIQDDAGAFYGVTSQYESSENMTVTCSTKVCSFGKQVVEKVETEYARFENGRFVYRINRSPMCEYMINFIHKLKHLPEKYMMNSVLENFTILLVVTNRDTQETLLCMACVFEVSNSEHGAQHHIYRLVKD

Legend:
[1] = biological target: recombinant TEAD3 protein (218-435, Uniprot ID: Q99594) (Homo sapiens (Human), UniProt Q99594); assay: Thermal shift assay (protein melting point curve), TEAD3; type: binding; design: key to the marks not given beside the values; conditions: 10 μM TEAD protein, 50 μM test compound
[2] = biological target: recombinant TEAD4 protein (217-434, Uniprot ID: Q15561) (Homo sapiens (Human), UniProt Q15561); assay: Thermal shift assay (protein melting point curve), TEAD4; type: binding; design: key to the marks not given beside the values; conditions: 10 μM TEAD protein, 50 μM test compound
[3] = biological target: recombinant TEAD4 protein central pocket (Homo sapiens (Human), UniProt Q15561); assay: Competitive thiol binding assay (CPM assay), TEAD4; conditions: read-out: IC50, TEAD4, 150 nM recombinant TEAD protein, 150 nM CPM
[4] = biological target: recombinant TEAD2 protein central pocket (Homo sapiens (Human), UniProt Q15562); assay: Competitive thiol binding assay (CPM assay), TEAD2; conditions: read-out: IC50, TEAD2, 150 nM recombinant TEAD protein, 150 nM CPM
[5] = biological target: recombinant TEAD1 protein central pocket (Homo sapiens (Human), UniProt P28347); assay: Competitive thiol binding assay (CPM assay), TEAD1; conditions: read-out: IC50, TEAD1, 150 nM recombinant TEAD protein, 150 nM CPM
[6] = biological target: recombinant TEAD3 protein central pocket (Homo sapiens (Human), UniProt Q99594); assay: Competitive thiol binding assay (CPM assay), TEAD3; conditions: read-out: IC50, TEAD3, 150 nM recombinant TEAD protein, 150 nM CPM
[7] = system: TEAD family proteins; assay: Thermal shift assay, summary over all TEAD subtypes; conditions: summary of Table 1
[8] = biological target: recombinant TEAD2 protein (218-447, Uniprot ID: Q15562) (Homo sapiens (Human), UniProt Q15562); assay: Thermal shift assay (protein melting point curve), TEAD2; type: binding; design: key to the marks not given beside the values; conditions: 10 μM TEAD protein, 50 μM test compound
[9] = system: recombinant TEAD1 protein (194-411, Uniprot ID: P28347); assay: Thermal shift assay (protein melting point curve), TEAD1; design: key to the marks not given beside the values; conditions: 10 μM TEAD protein, 50 μM test compound

| SMILES | Δ T m (TEAD3) [1] | Δ T m (TEAD4) [2] | IC50 [3] | IC50 [4] | IC50 [5] | IC50 [6] | binding ability to each subtype of TEAD family proteins [7] | Δ T m (TEAD2) [8] | Δ T m (TEAD1) [9] |
| --- | --- | --- | --- | --- | --- | --- | --- | --- | --- |
| CP(C)(=O)c1ccc(NC2CCC(C(F)(F)F)CC2)c(-c2ncccn2)c1 (stereo not drawn) | +++ | ++++ | 180 nM | 380 nM | 220 nM | 490 nM | good binding abilities | +++ | +++ |
| C=CP(=O)(C=C)c1ccc(Nc2ccc(C(F)(F)F)cc2)c(-c2nccc(OC3COC3)n2)c1 | ++ |  |  |  |  |  | good binding abilities | +++ | ++++ |
| Cn1cnc(-c2cc(P(C)(C)=O)ccc2Nc2ccc(C(F)(F)F)cc2)n1 |  |  |  |  |  |  | good binding abilities |  | ++++ |
